Experimental data as given in US11040106B2, “Conjugates of kinase inhibitors and cyanine dyes” (priority 2018, dated 2021).
“Also recorded” adds a separate entry of the source.

By UniProt entry, the sequences of proteins in these tests, tags left out. Residues count along the entry.
UniProt P02768, 25-609: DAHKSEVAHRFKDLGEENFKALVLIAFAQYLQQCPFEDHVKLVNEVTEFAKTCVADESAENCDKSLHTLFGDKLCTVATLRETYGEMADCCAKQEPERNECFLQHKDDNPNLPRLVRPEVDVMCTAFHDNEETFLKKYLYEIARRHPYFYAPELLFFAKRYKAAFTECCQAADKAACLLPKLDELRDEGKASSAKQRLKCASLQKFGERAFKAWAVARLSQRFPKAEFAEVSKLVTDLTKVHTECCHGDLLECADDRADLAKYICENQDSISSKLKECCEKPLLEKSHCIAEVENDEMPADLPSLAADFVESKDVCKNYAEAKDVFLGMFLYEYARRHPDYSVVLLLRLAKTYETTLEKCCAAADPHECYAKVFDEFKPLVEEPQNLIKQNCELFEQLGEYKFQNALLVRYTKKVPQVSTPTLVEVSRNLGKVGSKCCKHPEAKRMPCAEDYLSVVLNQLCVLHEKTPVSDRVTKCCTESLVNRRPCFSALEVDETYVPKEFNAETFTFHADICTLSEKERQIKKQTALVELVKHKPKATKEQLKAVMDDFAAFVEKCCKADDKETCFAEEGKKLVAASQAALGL

How the values were obtained:
[1] = target: HSA (Homo sapiens, UniProt P02768); assay: Covalent binding / reaction of cyanines with HSA (LC/MS, ESI MS, NIR-fluorescent gel); conditions: HEPES buffer pH 7.4, 37° C.
Description: FIGS. 33A to 33D show kinetics of a, 1, c, 4, d, 5; e, 6 in 1 M HEPES buffer pH 7.4. […] The kinetics was examined on C, 18 column using Agilent 1200 series LC/MS at 600 nm.
FIGS. 34A and 34B show mass spectra of a, free HSA and b, 1 bound to HSA. HSA: 1 (2.5:1); buffer 1 M HEPES.
In a control experiment, human serum albumin (HSA) was reacted with 2.5 equivalents of 1-Cl at 37° C. in 1 M HEPES buffer. This 1-Cl:albumin molar ratio was selected because it is approximately that used in cell culture experiments to probe uptake of this dye.
To test this assertion the experimental design was modified in the following way.

[2] = tested on: U87-MG cells; assay: Cytotoxicity of ICG, MHI-148 and QCy, 72 h in the dark, AlamarBlue
Description: Cytotoxicity of QCy was studied using U87-MG cells (a glioblastoma multiforme line).

covalent binding / reaction with HSA [1]: do not react with HSA
Substance: Indocyanine green [ICG]
cytotoxicity (in words) [2]: not significantly cytotoxic up to 80 μM; also recorded: not very toxic until 80 μM
